Measured values published in patent US12304939B2, “EGFR and C-met fibronectin type III domain binding molecules” (Janssen Biotech, Inc., priority 2012, dated 2025).
Values joined by “and” are separate entries in the source; they are usually repeats but may differ in a detail not shown here. Identical values can stand only once.

Legend:
[1] = system: H292-HGF human lung cancer xenograft; assay: Efficacy of bispecific molecule and other inhibitors of EGFR and c-Met, subcutaneous H292-HGF human lung cancer xenograft; assay type: in vivo, SCID/Beige mice; settings: for Tumor volume: mean ± SEM
[2] = mouse, in vivo

In the case of cetuximab, the “Tumor Size at day 23” value ([1]; bispecific 25 mg/kg, crizotinib, erlotinib 50 mg/kg, cetuximab 1 mg/mouse) is reported as 485 mm^3 and 485 ± 61 mm^3, the Tumor volume ([1]; day 7 (start of treatment)) is reported as 139 ± 10 mm^3 and the Tumor volume ([1]; day 9) is reported as 168 ± 13 mm^3. The Tumor volume ([1]; day 13) was 212 ± 20 mm^3, the Tumor volume ([1]; day 16) was 252 ± 28 mm^3 and the Tumor volume ([1]; day 20) was 371 ± 48 mm^3. It also gave a T/C ([1]; day 23, treated versus vehicle mean tumor volume) of 28%, a Tumor volume ([1]; day 23) of 485 ± 61 mm^3 and a Tumor volume ([1]; day 27) of 640 ± 82 mm^3. For the same substance, the Tumor volume ([1]; day 30) was 869 ± 100 mm^3, the “antitumor activity (in words)” value ([1]; mouse, in vivo) was “significant antitumor activities” and the “T-C at 1000 mm^3 (tumor growth delay)” value ([1]; versus vehicle group) was 17 days. The “toxicity, body weight loss, tolerability (in words)” value [2] was “well tolerated”.
